Chains of the proteins cited; added tags and fusions are not shown.
UniProt Q00987, whole entry: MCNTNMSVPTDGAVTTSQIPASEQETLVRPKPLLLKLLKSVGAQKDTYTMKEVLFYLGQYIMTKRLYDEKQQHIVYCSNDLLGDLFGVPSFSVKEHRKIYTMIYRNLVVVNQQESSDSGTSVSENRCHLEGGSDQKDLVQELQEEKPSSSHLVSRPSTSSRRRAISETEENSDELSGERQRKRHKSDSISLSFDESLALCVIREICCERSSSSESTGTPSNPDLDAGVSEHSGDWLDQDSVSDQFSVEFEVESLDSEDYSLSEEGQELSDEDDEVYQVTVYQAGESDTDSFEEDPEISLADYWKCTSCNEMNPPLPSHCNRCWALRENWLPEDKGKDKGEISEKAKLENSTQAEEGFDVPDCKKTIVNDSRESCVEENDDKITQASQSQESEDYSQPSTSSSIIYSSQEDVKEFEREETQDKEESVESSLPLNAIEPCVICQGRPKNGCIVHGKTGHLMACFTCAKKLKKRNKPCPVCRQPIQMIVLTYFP

According to publication PMC9250534, “Synthesis and direct assay of large macrocycle diversities by combinatorial late-stage modification at picomole scale” (Nature Communications, 2022):

Key:
thrombin = thrombin (Homo sapiens, UniProt P00734); assay: Determination of Kis of purified thrombin inhibitors (IC50, Cheng-Prusoff)
MDM2 = MDM2 (Homo sapiens, UniProt Q00987); assay: Kd of fluorescein-labeled macrocycles for MDM2 by direct fluorescence polarization; format: binding
[1] = Log[MDM2] M -5.6, replicates 4-5
[2] = Log[MDM2] M -5.7, replicates 1-3
[3] = Log[MDM2] M -6.0, replicates 1-3
[4] = Log[MDM2] M -6.2, replicates 4-5
[5] = Log[MDM2] M -6.3, replicates 1-3
[6] = Log[MDM2] M -6.5, replicates 4-5
[7] = Log[MDM2] M -6.6, replicates 1-3
[8] = Log[MDM2] M -6.8, replicates 4-5
[9] = Log[MDM2] M -6.9, replicates 1-3
[10] = Log[MDM2] M -7.1, replicates 4-5
[11] = Log[MDM2] M -7.2, replicates 1-3
[12] = Log[MDM2] M -7.4, replicates 4-5
[13] = Log[MDM2] M -7.5, replicates 1-3
[14] = Log[MDM2] M -7.7, replicates 4-5
[15] = Log[MDM2] M -7.8, replicates 1-3
[16] = Log[MDM2] M -8.0, replicates 4-5
[17] = Log[MDM2] M -8.1, replicates 1-3
[18] = Log[MDM2] M -8.3, replicates 4-5
[19] = Log[MDM2] M -8.4, replicates 1-3
[20] = Log[MDM2] M -8.6, replicates 4-5
[21] = Log[MDM2] M -8.9, replicates 4-5
[22] = Log[MDM2] M -9.2, replicates 4-5
[23] = Log[MDM2] M -9.5, replicates 4-5
[24] = Log[MDM2] M -9.8, replicates 4-5
[25] = read-out: KD Replicate 1, FITC-labeled macrocycle, direct FP binding, replicate 1
[26] = read-out: KD Replicate 2, FITC-labeled macrocycle, direct FP binding, replicate 2
[27] = read-out: KD Replicate 3, FITC-labeled macrocycle, direct FP binding, replicate 3
[28] = read-out: KD Replicate 4, FITC-labeled macrocycle, direct FP binding, replicate 4
[29] = read-out: KD Replicate5, FITC-labeled macrocycle, direct FP binding, replicate 5
[30] = read-out: Kd MDM2, direct FP assay, fluorescein-labeled (conjugated) macrocycle, mean ± SD of three independent measurements
[31] = Log[MDM2] M -5.4, replicates 1-3
[32] = Log[MDM2] M -5.9, replicates 4-5

anisotropy (MDM2; [2])	anisotropy (MDM2; [3])	anisotropy (MDM2; [4])	anisotropy (MDM2; [5])	anisotropy (MDM2; [6])	anisotropy (MDM2; [7])	anisotropy (MDM2; [8])	anisotropy (MDM2; [9])	anisotropy (MDM2; [10])	anisotropy (MDM2; [11])	anisotropy (MDM2; [12])	anisotropy (MDM2; [13])	anisotropy (MDM2; [14])	anisotropy (MDM2; [15])	anisotropy (MDM2; [16])	anisotropy (MDM2; [17])	anisotropy (MDM2; [18])	anisotropy (MDM2; [19])	anisotropy (MDM2; [20])	anisotropy (MDM2; [21])	Compound	other results
–	–	–	–	–	–	–	–	–	–	–	–	–	–	–	–	–	–	–	–	CC(C)[C@H]1NC(=O)CCCSCCNC(=O)[C@H](CNC(=O)c2ccc(Cl)s2)NC(=O)c2cccc(c2)CNC1=O	IC50 (thrombin; read-out: IC50 (nM) Average, thrombin, average of 3 replicates): 175 nM; IC50 (thrombin; read-out: IC50 (nM) Replicate 1, thrombin, replicate 1): 152 nM; IC50 (thrombin; read-out: IC50 (nM) Replicate 2, thrombin, replicate 2): 194 nM; IC50 (thrombin; read-out: IC50 (nM) Replicate 3, thrombin, replicate 3): 180 nM; Ki (thrombin; read-out: Ki (nM) Replicate 1, thrombin, replicate 1): 117 nM; Ki (thrombin; read-out: Ki (nM) Replicate 2, thrombin, replicate 2): 150 nM; Ki (thrombin; read-out: Ki (nM) Replicate 3, thrombin, replicate 3): 139 nM; Ki (thrombin; read-out: Ki thrombin, purified macrocycle, mean ± SD of three independent measurements): 135 nM
207 (2×) and 208	182 and 174 and 187	195 and 199	145 and 146 and 158	159	117 and 110 and 118	108	92 and 87 and 84	75	64 (2×) and 76	64 and 58	48 and 57 and 63	55 and 57	41 and 42 and 56	53 and 49	37 and 39 and 40	53 and 49	36 and 39 (2×)	44 and 46	46 and 49	O=C(C=Cc1ccccc1)NCC1NC(=O)C2CCCN(C2)C(=O)C(NC(=O)COCCOCCNC(=O)c2ccc3c(c2)C(=O)OC32c3ccc(O)cc3Oc3cc(O)ccc32)CSSCCNC(=O)C(Cc2c[nH]c3ccccc23)NC1=O (centres unmarked)	anisotropy (MDM2; [1]): 257 and 256; anisotropy (MDM2; [22]): 51 and 43; anisotropy (MDM2; [23]): 48 and 52; anisotropy (MDM2; [24]): 39 and 41; Kd (MDM2; [25]): 360 nM; Kd (MDM2; [26]): 440 nM; Kd (MDM2; [27]): 390 nM; Kd (MDM2; [28]): 360 nM; Kd (MDM2; [29]): 330 nM; Kd (MDM2; [30]): 370 nM and 380 nM
192 and 189 and 188	153 and 155 and 164	156 and 153	117 and 124 and 126	110 and 118	90 and 95 and 101	62 and 54	63 and 76 and 75	44 and 48	58 and 60 and 69	51 and 58	50 and 48 and 55	55 and 46	41 and 48 and 49	43 and 45	43 and 42 and 47	48 and 52	41 and 40 and 43	42 and 40	52 and 49	O=C(COCCOCCNC(=O)c1ccc2c(c1)C(=O)OC21c2ccc(O)cc2Oc2cc(O)ccc21)NC1CSSCCNC(=O)C(Cc2c[nH]c3ccccc23)NC(=O)C(CNC(=O)c2ccc(Cl)s2)NC(=O)C2CCCN(C2)C1=O (centres unmarked)	anisotropy (MDM2; [31]): 206 and 210 and 209; anisotropy (MDM2; [32]): 208 and 202; anisotropy (MDM2; [22]): 46 and 51; anisotropy (MDM2; [23]): 44 and 45; anisotropy (MDM2; [24]): 44 and 48; Kd (MDM2; [25]): 650 nM; Kd (MDM2; [26]): 690 nM; Kd (MDM2; [27]): 620 nM; Kd (MDM2; [28]): 600 nM; Kd (MDM2; [29]): 590 nM; Kd (MDM2; [30]): 630 nM
184 (2×) and 181	147 and 144 and 157	166 and 160	106 and 112 and 122	118 and 119	84 and 81 and 95	86 and 84	67 and 62 and 77	71 and 67	52 and 53 and 59	57 and 56	47 and 48 and 52	51 and 55	42 and 36 and 45	53 and 46	40 and 36 and 43	49 and 45	39 and 37 and 40	47 and 43	48 and 51	O=C(COCCOCCNC(=O)c1ccc2c(c1)C(=O)OC21c2ccc(O)cc2Oc2cc(O)ccc21)NC1CSSCCNC(=O)C(Cc2c[nH]c3ccccc23)NC(=O)C(CNC(=O)c2ccc(Cl)cc2)NC(=O)C2CCCN(C2)C1=O (centres unmarked)	anisotropy (MDM2; Log[MDM2] M -4.5, replicates 1-3): 245 and 230 and 246; anisotropy (MDM2; Log[MDM2] M -4.8, replicates 1-3): 225 and 226 and 222; anisotropy (MDM2; Log[MDM2] M -5.1, replicates 1-3): 227 and 220 and 222; anisotropy (MDM2; [31]): 204 and 205 and 208; anisotropy (MDM2; [1]): 234 and 240; anisotropy (MDM2; [32]): 203 and 206; anisotropy (MDM2; [22]): 48 and 47; anisotropy (MDM2; [23]): 47 and 50; anisotropy (MDM2; [24]): 47 and 45; Kd (MDM2; [25]): 880 nM; Kd (MDM2; [26]): 760 nM; Kd (MDM2; [27]): 740 nM; Kd (MDM2; [28]): 580 nM; Kd (MDM2; [29]): 670 nM; Kd (MDM2; [30]): 730 nM

Several values for one entry are separate records, joined by “and”; a condition that tells them apart may be missing. Identical values can stand only once. Like-named read-outs stand apart in the source and are kept apart here.
